# ChEMBL document CHEMBL6096671, “Discovery of VU6024578/BI02982816: An mGlu1 Positive Allosteric Modulator with Efficacy in Preclinical Antipsychotic and Cognition Models” (J Med Chem, 2024)
# Sequences of proteins named here, by UniProt entry; tags and fusion partners are left off. A change or cut given only in a name is not applied to a line headed by its entry.
# UniProt Q13255: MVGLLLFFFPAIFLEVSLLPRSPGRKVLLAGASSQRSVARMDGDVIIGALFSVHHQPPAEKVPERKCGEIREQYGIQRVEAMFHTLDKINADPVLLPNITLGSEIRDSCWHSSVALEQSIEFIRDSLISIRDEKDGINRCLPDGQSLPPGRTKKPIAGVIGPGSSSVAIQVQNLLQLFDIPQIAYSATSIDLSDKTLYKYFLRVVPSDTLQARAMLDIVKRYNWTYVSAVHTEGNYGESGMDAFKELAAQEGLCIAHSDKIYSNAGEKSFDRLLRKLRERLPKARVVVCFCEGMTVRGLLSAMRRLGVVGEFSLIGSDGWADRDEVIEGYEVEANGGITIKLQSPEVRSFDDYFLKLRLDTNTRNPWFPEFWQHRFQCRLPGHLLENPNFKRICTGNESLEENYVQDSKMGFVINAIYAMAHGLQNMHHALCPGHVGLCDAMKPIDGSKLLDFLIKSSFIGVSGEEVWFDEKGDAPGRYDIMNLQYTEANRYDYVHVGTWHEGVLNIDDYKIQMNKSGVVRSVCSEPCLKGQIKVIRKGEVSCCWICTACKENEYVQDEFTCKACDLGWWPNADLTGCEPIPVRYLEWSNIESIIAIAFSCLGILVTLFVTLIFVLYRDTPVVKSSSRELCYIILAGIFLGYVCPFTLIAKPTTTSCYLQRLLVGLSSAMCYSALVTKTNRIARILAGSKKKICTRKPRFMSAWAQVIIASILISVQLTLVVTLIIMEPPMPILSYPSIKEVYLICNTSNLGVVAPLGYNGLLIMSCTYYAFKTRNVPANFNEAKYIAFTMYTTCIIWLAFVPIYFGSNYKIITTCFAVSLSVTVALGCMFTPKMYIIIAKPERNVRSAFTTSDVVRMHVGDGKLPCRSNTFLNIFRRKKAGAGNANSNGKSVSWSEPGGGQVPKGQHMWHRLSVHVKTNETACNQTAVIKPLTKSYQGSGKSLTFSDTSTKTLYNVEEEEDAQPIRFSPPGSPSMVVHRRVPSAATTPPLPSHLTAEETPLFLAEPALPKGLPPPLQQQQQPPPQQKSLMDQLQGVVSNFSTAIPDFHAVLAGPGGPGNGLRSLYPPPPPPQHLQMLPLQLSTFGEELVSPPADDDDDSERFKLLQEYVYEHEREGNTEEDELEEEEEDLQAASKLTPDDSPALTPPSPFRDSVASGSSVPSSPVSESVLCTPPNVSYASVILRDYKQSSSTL
# Calls of active or inactive are those of the source. No cut-off for these calls is given here.
# Target: Metabotropic glutamate receptor 1 (Homo sapiens, UniProt Q13255)
# Assay: Positive allosteric modulation of tetracycline-inducible wild type human mGLU1 receptor expressed in human T-REx-293 cells assessed as maximum efficacy incubated for 2.5 mins by Fluo-4 AM dye based calcium mobilization assay relative to glutamate
# Format: functional, cell-based
structure (smiles),measurement,value
Cn1nccc1-c1ccc(Cl)c(C(=O)NCc2cnn3ccccc23)c1,Emax,inactive
